US8420644B2, “Pharmaceutical composition intended for the prevention or for the treatment of cerebral oedemas” (Biocodex, priority 2005, dated 2013)

Assay: Effect of the dose of triethyltin (dose finding)
Type: in vivo, rat

C[CH2][Sn]([Br])([CH2]C)[CH2]C
Mortality (TET 3 mg/kg/day): no mortality | Mortality (TET 4 mg/kg/day): mortality from the 4th day
